Laboratory results reported in BindingDB's records for 16201766 (Probiodrug, 2005).
pKi: −log10 of the molar value.

The chains behind the UniProt entries cited, without tags or fusion partners.
UniProt Q9CYK2, whole entry, looked up: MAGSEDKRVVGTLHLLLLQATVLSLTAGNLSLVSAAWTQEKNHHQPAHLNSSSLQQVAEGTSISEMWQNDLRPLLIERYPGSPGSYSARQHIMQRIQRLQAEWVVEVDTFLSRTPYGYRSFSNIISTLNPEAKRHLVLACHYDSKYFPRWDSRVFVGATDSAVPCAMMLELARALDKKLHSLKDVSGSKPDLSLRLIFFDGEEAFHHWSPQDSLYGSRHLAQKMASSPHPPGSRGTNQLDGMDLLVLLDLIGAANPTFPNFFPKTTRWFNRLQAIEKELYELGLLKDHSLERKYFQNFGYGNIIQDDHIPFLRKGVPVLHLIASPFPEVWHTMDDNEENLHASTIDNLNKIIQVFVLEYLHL

Target: Glutaminyl-peptide cyclotransferase (Mus musculus, UniProt Q9CYK2)
Details: pH 8

Compound `CCN(CC)CCS` has a pKi of 4.96.
For `CN(C)CCS`, the pKi was 4.54.
